{"source": "paper PMC5569891", "about": "(Chembiochem : a European journal of chemical biology, 2017)", "biological_target": "EhCrtM (Enterococcus hirae, UniProt I6T9U8)", "data": [{"smiles": "CC(C)=CCC/C(C)=C/CC/C(C)=C/COP(=O)(O)OP(=O)(O)O", "note": "[compound 1, farnesyl diphosphate]", "values": [{"measurement": "product identification (dehydrosqualene)", "result": "The protein produced dehydrosqualene from FPP"}]}]}
